Data: PubChem BioAssay (Tox21)
Where “and” joins values, the source holds several entries; their conditions need not be identical. Identical values can stand only once. The entries are a selection whose mix differs from that of the whole data set. Inconclusive results are not listed. Where a structure was tested more than once in an assay, its records may differ in their call. Calls of active or inactive are those of the source. Unless noted, the call rests on the fitted dose curve; in most records, active means well fitted curve in the direction sought with a large enough effect in the repeat runs; inconclusive means weak or mixed curves; inactive means no such curve, though single readings can be large; an effect the other way counts as inactive or inconclusive.

assay: qHTS assay to identify small molecule agonists of the progesterone receptor (PR) signaling pathway - cell viability counter screen (AID 1346799; calls by dose curve; further: nearly all actives have a fitted effect of over 45% in size; further: potency means the concentration at half of the fitted maximal effect); conditions: PR-UAS-bla HEK293T viability, CellTiter-Glo luminescence, 16 h; series mostly up to 92.4 µM
In short: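 Counter screen in the PR-UAS-bla HEK293T wells (2% charcoal-stripped FBS, 16 h compound exposure at 37 C) after the bla read. CellTiter-Glo added, 30 min at room temperature, luminescence read as cell viability.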
On the % scale 0 is the no-effect control and ±100 the full control effect.

| Compound | Potency |
| --- | --- |
| CC(C)N(CCO)C(C)C | inactive |
| OCCSCCO | inactive |
| CC(C)OP(C)(=O)OC(C)C | inactive |
| Cc1ccc([N+](=O)[O-])cc1[N+](=O)[O-] | inactive |
| O=[N+]([O-])OCC(CO[N+](=O)[O-])(CO[N+](=O)[O-])CO[N+](=O)[O-] | inactive |
| N=C(N)N[N+](=O)[O-] | inactive |
| C/C1=C2N=C(/C=C3N=C(/C(C)=C4\[N-][C@@](C)([C@@H]5N=C1[C@](C)(CCC(=O)NC[C@@H](C)OP(=O)([O-])O[C@H]1[C@@H](O)[C@@H](n6cnc7cc(C)c(C)cc76)O[C@@H]1CO)[C@H]5CC(N)=O)[C@@](C)(CC(N)=O)[C@@H]4CCC(N)=O)[C@@](C)(CC(N)=O)[C@@H]\3CCC(N)=O)C(C)(C)[C@@H]/2CCC(N)=O.[C-]#N.[Co+3] | inactive |
| O=[N+]([O-])[O-].[NH4+] | inactive |
| COc1ccc([N+](=O)[O-])cc1[N+](=O)[O-] | inactive |
| Cc1c([N+](=O)[O-])cccc1[N+](=O)[O-] | inactive |
| Cc1ccc([N+](=O)[O-])c([N+](=O)[O-])c1 | active: 70 µM and inactive |
| [NH4+].[O-][Cl+3]([O-])([O-])[O-] | inactive |
| N#CBr | inactive |
| CCOP(=O)(CC)OCC | inactive |
| CN(C)CCCl | inactive |
| CP(=O)(O)OCCC[Si](O)(O)O | inactive |

assay: qHTS assay to identify small molecule antagonists of the TGF-beta/Smad signaling pathway - cell viability counter screen (AID 1346824); conditions: SBE-bla HEK293T viability, CellTiter-Glo luminescence; at 76.8 µM (top of the series) unless noted; further: nearly all actives have a fitted effect of over 50% in size
In short: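 SBE-bla HEK 293T cells, incubated overnight, then compound plus 0.25 ng/mL TGF-beta1 (stock added) for 5 hr at 37 C. Viability was read in the same wells by CellTiter-Glo luminescence after 30 min at room temperature.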

| Compound | viability change, negative = cytotoxic |
| --- | --- |
| CC(C)N(CCO)C(C)C | inactive: -1.87% |
| CCN(CC)CCCl | inactive: 4.76% |
| O=[N+]([O-])c1cccc([N+](=O)[O-])c1 | inactive: 15.1% |
| CC(C)OP(C)(=O)OC(C)C | inactive: -1.54% and inactive: -3.82% |
| Cc1ccc([N+](=O)[O-])cc1[N+](=O)[O-] | inactive: -28.8% and inactive: 15.3% |
| O=[N+]([O-])OCC(CO[N+](=O)[O-])(CO[N+](=O)[O-])CO[N+](=O)[O-] | inactive: -0.454% |
| N=C(N)N[N+](=O)[O-] | inactive: 2.46% |
| C/C1=C2N=C(/C=C3N=C(/C(C)=C4\[N-][C@@](C)([C@@H]5N=C1[C@](C)(CCC(=O)NC[C@@H](C)OP(=O)([O-])O[C@H]1[C@@H](O)[C@@H](n6cnc7cc(C)c(C)cc76)O[C@@H]1CO)[C@H]5CC(N)=O)[C@@](C)(CC(N)=O)[C@@H]4CCC(N)=O)[C@@](C)(CC(N)=O)[C@@H]\3CCC(N)=O)C(C)(C)[C@@H]/2CCC(N)=O.[C-]#N.[Co+3] | inactive: 22% [at 35.3 µM] |
| O=[N+]([O-])[O-].[NH4+] | inactive: -5.12% and inactive: 11.3% |
| COc1ccc([N+](=O)[O-])cc1[N+](=O)[O-] | inactive: 0.907% |
| CCOP(=O)(CC)Oc1ccc([N+](=O)[O-])cc1 (configuration not stated) | inactive: -24.6% [at 35.3 µM] |
| Nc1cc([N+](=O)[O-])cc([N+](=O)[O-])c1O | inactive: -17.6% |
| COP(C)(=O)OC | inactive: -0.124% and inactive: 8.28% |
| Cc1c([N+](=O)[O-])cccc1[N+](=O)[O-] | inactive: -3.49% and inactive: 11.9% |
| Cc1ccc([N+](=O)[O-])c([N+](=O)[O-])c1 | inactive: 3.92% and inactive: 8.06% |
| [NH4+].[O-][Cl+3]([O-])([O-])[O-] | inactive: -0.748% and inactive: 6.65% |
| N#CBr | inactive: -0.843% |
| CCOP(=O)(CC)OCC | inactive: -1.98% |
| CN(C)CCCl | inactive: 3.68% |
| CP(=O)(O)OCCC[Si](O)(O)O | inactive: -6.6% |

assay: qHTS assay to identify small molecule agonists of the TGF-beta/Smad signaling pathway - cell viability counter screen (AID 1346829); conditions: SBE-bla HEK293T viability, CellTiter-Glo luminescence, 5 h; at 76.8 µM (top of the series) unless noted; further: top concentration of the series differs between compounds; nearly all actives have a fitted effect of over 45% in size
In short: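 Here the cytotoxicity of library compounds is measured in SBE-bla HEK 293T cells treated for 5 hr, using CellTiter-Glo added to wells already read for the beta-lactamase reporter.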

| Compound | activity change, negative = cytotoxicity |
| --- | --- |
| Cc1cccc([N+](=O)[O-])c1[N+](=O)[O-] | inactive: -10.2% [at 35.3 µM] |
| CC(C)N(CCO)C(C)C | inactive: 0.0749% |
| CCN(CC)CCCl | inactive: -2.09% |
| O=[N+]([O-])c1cccc([N+](=O)[O-])c1 | inactive: 1.14% |
| CC(C)OP(C)(=O)OC(C)C | inactive: 1.51% and inactive: 4.45% |
| Cc1ccc([N+](=O)[O-])cc1[N+](=O)[O-] | inactive: -17.9% and inactive: -0.28% |
| O=[N+]([O-])OCC(CO[N+](=O)[O-])(CO[N+](=O)[O-])CO[N+](=O)[O-] | inactive: -0.485% |
| N=C(N)N[N+](=O)[O-] | inactive: -14.9% |
| C/C1=C2N=C(/C=C3N=C(/C(C)=C4\[N-][C@@](C)([C@@H]5N=C1[C@](C)(CCC(=O)NC[C@@H](C)OP(=O)([O-])O[C@H]1[C@@H](O)[C@@H](n6cnc7cc(C)c(C)cc76)O[C@@H]1CO)[C@H]5CC(N)=O)[C@@](C)(CC(N)=O)[C@@H]4CCC(N)=O)[C@@](C)(CC(N)=O)[C@@H]\3CCC(N)=O)C(C)(C)[C@@H]/2CCC(N)=O.[C-]#N.[Co+3] | inactive: -0.0333% [at 35.3 µM] |
| O=[N+]([O-])[O-].[NH4+] | inactive: -8.67% and inactive: -4.74% |
| COc1ccc([N+](=O)[O-])cc1[N+](=O)[O-] | inactive: -23.7% |
| CCOP(=O)(CC)Oc1ccc([N+](=O)[O-])cc1 (configuration not stated) | inactive: -31.2% [at 35.3 µM] |
| Nc1cc([N+](=O)[O-])cc([N+](=O)[O-])c1O | inactive: -23.7% |
| COP(C)(=O)OC | inactive: -11.2% and inactive: -0.335% |
| Cc1c([N+](=O)[O-])cccc1[N+](=O)[O-] | inactive: 3.62% and inactive: 9% |
| Cc1ccc([N+](=O)[O-])c([N+](=O)[O-])c1 | inactive: -6.11% and inactive: -2.14% |
| [NH4+].[O-][Cl+3]([O-])([O-])[O-] | inactive: -1.41% and inactive: -6.51% |
| N#CBr | inactive: -12.4% |
| CCOP(=O)(CC)OCC | inactive: 1.12% |
| CN(C)CCCl | inactive: -6.38% |
| CP(=O)(O)OCCC[Si](O)(O)O | inactive: 5.73% |
